Test system: Ba/F3 engineered cell EGFR-G719S xenograft model
Details: equivalent doses, body weight
Experimental: Statistical analyses were performed using GraphPad Prism 6. […] A value of P < 0.05 was considered statistically significant.

`CCOc1cc2ncc(C#N)c(Nc3ccc(OCc4ccccn4)c(Cl)c3)c2cc1NC(=O)/C=C/CN(C)C.O=C(O)/C=C\C(=O)O` [Compound A009, (E)-N-(4-(3-chloro-4-(pyridin-2-ylmethoxy)anilino)-3-cyano-7-ethoxyquinolin-6-yl)-4-(dimethylamino)but-2-enamide maleate, reference compound] was tested, and the “Tolerability compared with afatinib” value was “overall better tolerability”.
